Test results from ChEMBL document CHEMBL1926634, “Structure-guided evolution of potent and selective CHK1 inhibitors through scaffold morphing” (J Med Chem, 2011).

Biological target: T1, Serine/threonine-protein kinase Chk1 (Homo sapiens, UniProt O14757)
T1 sequence (O14757 whole entry): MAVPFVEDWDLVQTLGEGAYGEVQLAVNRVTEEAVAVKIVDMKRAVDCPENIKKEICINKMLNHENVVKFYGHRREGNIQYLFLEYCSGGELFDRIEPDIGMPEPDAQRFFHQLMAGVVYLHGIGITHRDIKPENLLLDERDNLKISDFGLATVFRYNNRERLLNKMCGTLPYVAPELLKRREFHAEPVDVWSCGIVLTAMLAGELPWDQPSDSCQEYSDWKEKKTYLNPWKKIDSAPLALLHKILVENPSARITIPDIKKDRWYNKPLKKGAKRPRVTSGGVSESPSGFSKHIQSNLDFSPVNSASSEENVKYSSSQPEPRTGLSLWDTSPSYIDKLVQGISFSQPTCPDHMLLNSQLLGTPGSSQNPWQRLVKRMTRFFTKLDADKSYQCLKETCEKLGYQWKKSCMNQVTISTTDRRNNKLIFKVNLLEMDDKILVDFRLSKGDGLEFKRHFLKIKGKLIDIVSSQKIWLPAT

SMILES	IC50 [µM]
N#Cc1cnc(Nc2cc(NCCCN)ncn2)cn1	0.4
N#Cc1cnc(Nc2cc(NCCCO)ncn2)cn1	1.8
N#Cc1cnc(Nc2cc(NCCN)ncn2)cn1	2.5
N#Cc1cnc(Nc2cc(N3CCC(N)CC3)ncn2)cn1	1.2
N#Cc1ncc(Nc2cc3ccccc3cn2)nc1OC1CCCNC1 (stereo unspecified)	0.007
N#Cc1cnc(Nc2cc3c(cn2)ncn3CC2CCNCC2)cn1	9
